Earlier results as cited in publication PMC6520732, “Exploring the Antiangiogenic Potential of Solomonamide A Bioactive Precursors: In Vitro and In Vivo Evidences of the Inhibitory Activity of Solo F-OH During Angiogenesis” (Marine Drugs, 2019).

Test system: VEGFR2 TK activity
Settings: read-out: IC50 of VEGFR2 TK activity; in vitro biochemical assays; ref [31],[32]; cited from earlier work

## CCN(CC)CCNC(=O)c1c(C)[nH]c(/C=C2\C(=O)Nc3ccc(F)cc32)c1C [Sunitinib]
  IC50: 0.08 µM
